Measured values reported in US20260053861A1, “CELL COMPOSITIONS AND METHODS OF USING THE SAME” (THE REGENTS OF THE UNIVERSITY OF CALIFORNIA, priority 2022, published 2026).

System: hPSC-SCs
Settings: HTS viability of hPSC-SCs in the presence of 30 mM glucose; Prestwick library; Table S4

C[C@@H](O)[C@H]1C(=O)N2C(C(=O)O)=C(S[C@@H]3CN[C@H](C(=O)N(C)C)C3)[C@H](C)[C@H]12 [Meropenem]
z.score.t: −0.3313
